Drawing on PubChem BioAssay AID602274 (Sanford-Burnham Center for Chemical Genomics, 2012), this text covers survival enhancement for 61 compounds.

Only a part is listed here, and it is no random draw. Activity calls are given as the source filed them. Rule as the data show it: active = survival enhancement above about 18%; inactive = the rest.

A short description of the assay: enhancers of single-cell hiPSC survival, primary screen, ATPlite luminescence (AID 602274).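 Also: cells exposed to compounds for 16 hours before the ATP read.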 As to conditions: at 20 µM, stronger effect = higher value, 100% = ROCK inhibitor wells, 0% = DMSO.
For the compound `O=c1[nH]c2ccccc2n1C1CCN(C(c2cccs2)c2nnnn2C2CCCC2)CC1` (stereo unspecified), the survival enhancement is inactive: 1.3%. The same measure for `O=C(OC1CN2CCC1CC2)C1c2ccccc2C=Cc2ccccc21` (stereo unspecified): inactive: 3.1%; for `CCCCn1nnnc1C(c1cccc(OC)c1OC)N1CCC(n2c(=O)[nH]c3ccccc32)CC1` (stereo unspecified): inactive: 0.7%. In the case of `COc1cccc(C(c2nnnn2C(C)(C)C)N2CCC(n3c(=O)[nH]c4ccccc43)CC2)c1OC` (stereo unspecified), the survival enhancement was inactive: 0.1%. The same measure for `CCOC(=O)N1CCC(Nc2ccc(C)cc2)CC1`: inactive: -0.1%. `N/C(=N\O)c1c(N)no[n+]1[O-]`: the survival enhancement is inactive: 0.3%. Consider `O=c1[nH]c2ccccc2n1C1CCN(C(c2cccs2)c2nnnn2C2CCCCC2)CC1` (stereo unspecified), for which the survival enhancement is inactive: -0.4%. The same measure for `O=c1[nH]c2ccccc2n1C1CCN(C(c2ccnc3ccccc23)c2nnnn2C2CCCC2)CC1` (stereo unspecified): inactive: -0.7%; for `COc1ccc(C(=O)NCC2(N3CCOCC3)CCCCC2)cc1OC`: inactive: -1.3%; for `COc1cc(C(=O)NCC2(N3CCOCC3)CCCCC2)cc(OC)c1C`: inactive: 0.1%.

Regarding `CCCCn1nnnc1C(c1ccccc1)N1CCC(n2c(=O)[nH]c3ccccc32)CC1` (stereo unspecified), the survival enhancement was inactive: -0.3%. Next, `O=C(NCC1(N2CCOCC2)CCCCC1)c1cc(Br)ccc1Cl`: inactive: -0.1%; `CC(C)(C)n1nnnc1C(c1cccc2ccccc12)N1CCC(n2c(=O)[nH]c3ccccc32)CC1` (stereo unspecified): inactive: 0.7%. For the compound `CN(C)C1(CNC(=O)c2cccc(C#N)c2)CCCCC1`, the survival enhancement was inactive: 0.6%. Next, `CCCN1CCC(Nc2cc(OC)cc(OC)c2)CC1`: inactive: -0.4%; `O=c1[nH]c2ccccc2n1C1CCN(C(c2ccccc2)c2nnnn2C2CCCC2)CC1` (stereo unspecified): inactive: -1.2%.

On to `Cc1cc(N(CCCl)CCCl)ccc1C=O`, for which the survival enhancement was inactive: 0.6%. The same measure for `c1ccc(CN2CCC(Nc3ccccc3)CC2)cc1`: inactive: -0.7%; for `N#Cc1ccc(C(=O)NCC2(N3CCCCC3)CCCCC2)cc1`: inactive: 0.1%; for `CC(C)(C)OC(=O)N1CCC(N(C(=O)c2ccccc2)c2ccc(Cl)cc2)CC1`: inactive: 0.2%. Next, `Cn1c(=O)[nH]cc(N(CCCl)CCCl)c1=O`: inactive: -2.3%. Next, `CN(C)c1ccc(C(=O)NCC2(N3CCCCC3)CCCCC2)cc1`: inactive: 0.2%.

In the case of `O=C(NCC1(N2CCCCC2)CCCCC1)c1ccco1`, the survival enhancement is inactive: 0.7%. The same measure for `CC(C)(C)n1nnnc1C(c1ccnc2ccccc12)N1CCC(n2c(=O)[nH]c3ccccc32)CC1` (stereo unspecified): inactive: -0.9%; for `COc1ccc(C(c2nnnn2C2CCCCC2)N2CCC(n3c(=O)[nH]c4ccccc43)CC2)cc1` (stereo unspecified): inactive: -0.8%; for `CCN1CCC(Nc2cccc(F)c2)CC1`: inactive: -2.8%. As to `Cc1ccccc1NC1(C#N)CCN(Cc2ccccc2)CC1`, the survival enhancement was inactive: 2.2%. The same measure for `Fc1ccccc1NC1CCN(Cc2ccccc2)CC1`: inactive: -0.4%; for `Cc1ccc(C(=O)NCC2(N3CCCCC3)CCCCC2)o1`: inactive: -0.3%. Consider `Cc1ccc(NC2(C#N)CCN(Cc3ccccc3)CC2)cc1`, for which the survival enhancement is inactive: -1.2%. The same measure for `CCC(c1nnnn1C1CCCCC1)N1CCC(n2c(=O)[nH]c3ccccc32)CC1` (stereo unspecified): inactive: 1.7%.

Regarding `CC(=O)N(c1ccccc1)C1CCNCC1`, the survival enhancement is inactive: -3.5%. The same measure for `COc1cccc(C(c2nnnn2C2CCCCC2)N2CCC(n3c(=O)[nH]c4ccccc43)CC2)c1OC` (stereo unspecified): inactive: -0.5%; for `O=c1[nH]c2ccccc2n1C1CCN(C(c2ccnc3ccccc23)c2nnnn2C2CCCCC2)CC1` (stereo unspecified): inactive: 0.2%. Next, `COc1cc(OC)cc(C(=O)NCC2(N3CCCCC3)CCCCC2)c1`: inactive: -0.5%; `CN1CCC(Nc2ccc(Cl)cc2)CC1`: inactive: 0.7%. Consider `COc1cccc(C(=O)N(c2cc(C)cc(C)c2)C2CCN(C(=O)OC(C)(C)C)CC2)c1`, for which the survival enhancement was inactive: -0.2%.

In the case of `COc1cc(OC)cc(C(=O)NCC2(N3CCOCC3)CCCCC2)c1`, the survival enhancement was inactive: -0.6%.

As to `COc1cccc(C(c2nnnn2C2CCCC2)N2CCC(n3c(=O)[nH]c4ccccc43)CC2)c1OC` (stereo unspecified), the survival enhancement is inactive: 10.6%. Consider `CCC(CO)(C(=O)OC1CN2CCC1CC2)c1ccccc1` (stereo unspecified), for which the survival enhancement was inactive: -2.3%.

Regarding `NN(c1ccccc1)C1CCN(CCc2ccccc2)CC1`, the survival enhancement was inactive: -0.8%. Next, `O=C(O)C1(Nc2ccccc2)CCN(Cc2ccccc2)CC1`: inactive: 1.2%; `CC(C)(C)OC(=O)N1CCC(Nc2ccccc2)CC1`: inactive: -0.4%.

With `CCCOc1ccc(C(=O)NCC2(N(C)C)CCCCC2)cc1`, the survival enhancement is inactive: -0.4%. Regarding `O=c1[nH]c2ccccc2n1C1CCN(C(c2cc3ccccc3o2)c2nnnn2C2CCCC2)CC1` (stereo unspecified), the survival enhancement was inactive: 5.7%. The same measure for `CN1CCC(Nc2ccc(F)c(Cl)c2)CC1`: inactive: -0.3%; for `CCOc1ncccc1C(=O)NCC1(N2CCOCC2)CCCCC1`: inactive: -3.2%. The same measure for `COc1ccc(Cl)cc1C(=O)NCC1(N2CCOCC2)CCCCC1`: inactive: -0.4%; for `O=c1[nH]c2ccccc2n1C1CCN(C(c2cc3ccccc3o2)c2nnnn2C2CCCCC2)CC1` (stereo unspecified): inactive: 2.3%.

Regarding `O=C(OC1CN2CCC1CC2)C1c2ccccc2Oc2ccccc21` (stereo unspecified), the survival enhancement is inactive: 2.6%. Next, `O=C(NCC1(N2CCCCC2)CCCCC1)c1ccc(Cl)s1`: inactive: -3%; `N#CC1(Nc2ccccc2)CCN(Cc2ccccc2)CC1`: inactive: -0.6%; `CCCCn1nnnc1C(c1ccc(OC)cc1)N1CCC(n2c(=O)[nH]c3ccccc32)CC1` (stereo unspecified): inactive: -1.9%. The same measure for `CCOC(=O)N1CCC(Nc2ccc(OC)cc2)CC1`: inactive: 1.3%.

Turning to `Cc1cc(C)cc(N(C(=O)c2ccccc2)C2CCN(C(=O)OC(C)(C)C)CC2)c1`, the survival enhancement is inactive: 0.9%.

Regarding `O=c1[nH]c2ccccc2n1C1CCN(C(c2ccccc2OC(F)(F)F)c2nnnn2C2CCCCC2)CC1` (stereo unspecified), the survival enhancement is inactive: 1.2%. Next, `O=C(NCC1(N2CCCCC2)CCCCC1)c1ccc(Cl)nc1`: inactive: -0.1%; `O=C(NCC1(N2CCOCC2)CCCCC1)c1cc2ccccc2o1`: inactive: 5.7%; `Cc1cccc(NC2(C#N)CCN(Cc3ccccc3)CC2)c1`: inactive: -1.9%. On to `CSc1ccccc1C(=O)NCC1(N2CCCCC2)CCCCC1`, for which the survival enhancement is inactive: 0.5%. The same measure for `CCC(c1nnnn1C1CCCC1)N1CCC(n2c(=O)[nH]c3ccccc32)CC1` (stereo unspecified): inactive: -1.9%.
